Amino acid sequences for entries named in this document (tags omitted). Residues count along the entry.
UniProt Q15116, 25-288: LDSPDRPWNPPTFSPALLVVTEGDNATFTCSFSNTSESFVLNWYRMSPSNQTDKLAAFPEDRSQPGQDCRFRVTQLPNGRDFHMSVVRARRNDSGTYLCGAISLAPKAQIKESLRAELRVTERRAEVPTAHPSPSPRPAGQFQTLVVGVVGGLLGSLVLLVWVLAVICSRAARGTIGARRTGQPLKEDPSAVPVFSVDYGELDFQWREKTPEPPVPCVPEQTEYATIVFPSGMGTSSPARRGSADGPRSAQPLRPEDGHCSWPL
UniProt Q15116, 25-170: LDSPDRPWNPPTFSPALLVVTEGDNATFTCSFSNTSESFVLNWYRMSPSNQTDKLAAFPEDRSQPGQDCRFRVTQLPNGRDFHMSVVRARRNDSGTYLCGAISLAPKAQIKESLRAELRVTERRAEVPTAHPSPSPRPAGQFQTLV

According to patent publication CN106632674A (AKESO BIOPHARMA INC, dated 2017):

How the values were obtained:
[1] = biological target: T1, PD-1ECD-TEV-mFc融合蛋白 (human); test: indirect ELISA, coated PD-1 Fc fusion (mFc form taken for the human-Fc antibody), run together with 6F5H1L1 and 5C4
T1 construct: Expressed in 293F cells, purified on Mabselect SuRe; also called PD-1-mFc; PD1-mFc

[2] = biological target: T2, PD-1ECD-TEV-hFc融合蛋白 (human); test: competition ELISA, antibody titrated from 1.5 ug/ml against PDL-1 Fc fusion (2 ug/ml; PDL-1-mFc taken) on coated PD-1 Fc fusion (PD-1-hFc taken)
T2 construct: Expressed in 293F cells, purified on Mabselect SuRe; also called PD-1-hFc; PD1-hFc

[3] = biological target: T3, PD-1 on the surface of 293T-PD-1 cells (293T stably transfected with pLenti6.3-PD-1) (human, UniProt Q15116 25-288); test: flow cytometry, inhibition of the binding of 20 nM PDL-1-mFc to 293T-PD-1 cells, antibody 1-100 nM
T3 construct: whole, on cells; also called 细胞表面抗原PD-1

[4] = biological target: T3, PD-1 on the surface of 293T-PD-1 cells …; test: flow cytometry on 293T-PD-1 cells, antibody 0.01-50 nM
[5] = biological target: T4, 抗原PD-1 (PD-1ECD released from PD-1-mFc by TEV protease, biotin-labelled) (human, UniProt Q15116 25-170, biotin-labelled (site not stated)); test: BLI (Fortebio), biotinylated PD-1 on SA sensor, antibody 3-fold dilutions from 200 nM
T4 construct: extracellular domain; by the stated lengths (389 aa whole, 239 aa TEV site + mFc printed) it has 150 residues; also called PD-1抗原

[6] = biological target: T1, PD-1ECD-TEV-mFc融合蛋白; test: indirect ELISA, coated PD-1 Fc fusion

B1: 人源化抗体6F5H2L2 (antibody, V domains shown)
VH: EVQLVESGGGLVQPGGSLRLSCAASGFTFSSYGMSWVRQAPGKGLEWVATISGGGSDTYYADSVKGRFTISRDNSKNTLYLQMNSLRAEDTAVYYCARQLNYAWFAYWGQGTLVTVSS
VL: DIVLTQSPASLAVSPGQRATITCRASESVDNYGISFMNWYQQKPGQPPKLLIYTSSNKDTGVPARFSGSGSGTDFTLTINPMEAEDTAVYYCQQSKEVPWTFGGGTKLEIKR
EC50 [1]: 0.1 nM | EC50 [2]: 1.18 nM | EC50 [3]: 8.09 nM | EC50 [4]: 5.02 nM | Kd [5]: 0.234 nM | koff [5]: 0.000103 s⁻¹ | kon [5]: 439000 M⁻¹ s⁻¹ | EC50 ratio to 5C4 [6]: ~0.5 fold of the EC50 of 5C4
